Test results: US20260027128A1 (priority 2016, published 2026)

Test system: male Sprague-Dawley rats
Details: inhalation of remimazolam alone, 10 and 25 mg/mL, 5 min

## COC(=O)CC[C@@H]1N=C(c2ccccn2)c2cc(Br)ccc2-n2c(C)cnc21 [Remimazolam, methyl 3-[(4S)-8-bromo-1-methyl-6-(pyridin-2-yl)-4H-imidazo[1,2-a][1,4]benzodiazepin-4-yl]propanoate]
  Analgesia (time to tail flick): failed to produce analgesia
